This note sets out measurements from paper PMC9459959, “Synthesis and Activity of 2-Acyl-cyclohexane-1,3-dione Congeners Derived from Peperomia Natural Products against the Plant p-Hydroxyphenylpyruvate Dioxygenase Herbicidal Molecular Target Site” (Plants, 2022).

The assay deals with HPPD (p-hydroxyphenylpyruvate dioxygenase) (Arabidopsis thaliana, UniProt P93836). In words: HPLC of homogentisate formed ([…] nm), dose-response. The note with it: read-out: I50app; 15 min incubation; slow tight-binding class; E. coli total soluble protein extract.

The structures appear in SMILES notation.

Turning to `CC1(C)CC(=O)C(C(=O)CCc2ccc3c(c2)OCO3)=C(O)C1`, the IC50 worked out at 3.25 µM. Turning to `O=C1CCCC(O)=C1C(=O)CCc1ccc2c(c1)OCO2`, the IC50 stood at 0.97 µM.
